Source: PubChem BioAssay (Tox21)
Only results without a clear call are listed here; the source files them as inconclusive. Unless noted, calls come from the whole dose curve.

By UniProt entry, the sequences of proteins in these tests, tags left out. Where a name states a change or a piece, a line headed by the entry shows the natural chain unless it says otherwise.
UniProt P37231: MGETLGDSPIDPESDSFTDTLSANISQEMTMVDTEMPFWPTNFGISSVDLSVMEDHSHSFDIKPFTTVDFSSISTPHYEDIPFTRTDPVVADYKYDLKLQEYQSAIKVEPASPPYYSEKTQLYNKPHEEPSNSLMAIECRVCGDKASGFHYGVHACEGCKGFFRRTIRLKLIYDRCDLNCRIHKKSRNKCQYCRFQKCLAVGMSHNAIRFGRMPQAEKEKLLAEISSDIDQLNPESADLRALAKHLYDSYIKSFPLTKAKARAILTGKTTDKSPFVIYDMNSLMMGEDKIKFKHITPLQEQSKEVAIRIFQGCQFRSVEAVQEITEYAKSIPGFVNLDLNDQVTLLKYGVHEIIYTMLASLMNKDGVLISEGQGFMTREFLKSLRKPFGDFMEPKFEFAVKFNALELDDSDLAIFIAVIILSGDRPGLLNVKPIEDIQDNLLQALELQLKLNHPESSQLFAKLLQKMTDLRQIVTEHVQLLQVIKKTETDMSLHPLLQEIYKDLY
UniProt Q03181: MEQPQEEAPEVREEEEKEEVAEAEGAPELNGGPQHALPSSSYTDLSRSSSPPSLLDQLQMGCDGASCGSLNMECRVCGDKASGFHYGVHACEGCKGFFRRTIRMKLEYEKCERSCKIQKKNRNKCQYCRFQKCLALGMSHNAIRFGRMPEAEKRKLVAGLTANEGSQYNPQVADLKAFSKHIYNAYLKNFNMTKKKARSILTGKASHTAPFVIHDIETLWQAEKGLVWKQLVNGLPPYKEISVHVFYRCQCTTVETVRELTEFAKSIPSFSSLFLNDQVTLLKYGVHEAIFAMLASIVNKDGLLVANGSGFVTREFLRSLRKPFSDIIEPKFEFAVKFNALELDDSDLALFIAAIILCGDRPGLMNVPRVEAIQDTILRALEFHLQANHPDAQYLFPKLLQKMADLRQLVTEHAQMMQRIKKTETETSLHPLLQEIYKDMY
UniProt Q96RI1: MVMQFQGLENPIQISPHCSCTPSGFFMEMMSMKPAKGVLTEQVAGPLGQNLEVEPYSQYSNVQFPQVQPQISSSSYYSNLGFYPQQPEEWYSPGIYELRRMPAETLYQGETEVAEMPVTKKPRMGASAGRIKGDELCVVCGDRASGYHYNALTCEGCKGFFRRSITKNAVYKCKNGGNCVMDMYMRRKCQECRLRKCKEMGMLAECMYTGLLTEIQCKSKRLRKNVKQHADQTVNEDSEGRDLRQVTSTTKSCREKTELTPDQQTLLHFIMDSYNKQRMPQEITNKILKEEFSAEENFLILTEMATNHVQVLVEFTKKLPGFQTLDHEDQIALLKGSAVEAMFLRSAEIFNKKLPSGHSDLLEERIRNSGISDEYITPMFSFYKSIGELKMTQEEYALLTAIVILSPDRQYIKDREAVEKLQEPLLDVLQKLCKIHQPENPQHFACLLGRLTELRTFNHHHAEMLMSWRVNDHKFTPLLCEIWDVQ
UniProt P06401: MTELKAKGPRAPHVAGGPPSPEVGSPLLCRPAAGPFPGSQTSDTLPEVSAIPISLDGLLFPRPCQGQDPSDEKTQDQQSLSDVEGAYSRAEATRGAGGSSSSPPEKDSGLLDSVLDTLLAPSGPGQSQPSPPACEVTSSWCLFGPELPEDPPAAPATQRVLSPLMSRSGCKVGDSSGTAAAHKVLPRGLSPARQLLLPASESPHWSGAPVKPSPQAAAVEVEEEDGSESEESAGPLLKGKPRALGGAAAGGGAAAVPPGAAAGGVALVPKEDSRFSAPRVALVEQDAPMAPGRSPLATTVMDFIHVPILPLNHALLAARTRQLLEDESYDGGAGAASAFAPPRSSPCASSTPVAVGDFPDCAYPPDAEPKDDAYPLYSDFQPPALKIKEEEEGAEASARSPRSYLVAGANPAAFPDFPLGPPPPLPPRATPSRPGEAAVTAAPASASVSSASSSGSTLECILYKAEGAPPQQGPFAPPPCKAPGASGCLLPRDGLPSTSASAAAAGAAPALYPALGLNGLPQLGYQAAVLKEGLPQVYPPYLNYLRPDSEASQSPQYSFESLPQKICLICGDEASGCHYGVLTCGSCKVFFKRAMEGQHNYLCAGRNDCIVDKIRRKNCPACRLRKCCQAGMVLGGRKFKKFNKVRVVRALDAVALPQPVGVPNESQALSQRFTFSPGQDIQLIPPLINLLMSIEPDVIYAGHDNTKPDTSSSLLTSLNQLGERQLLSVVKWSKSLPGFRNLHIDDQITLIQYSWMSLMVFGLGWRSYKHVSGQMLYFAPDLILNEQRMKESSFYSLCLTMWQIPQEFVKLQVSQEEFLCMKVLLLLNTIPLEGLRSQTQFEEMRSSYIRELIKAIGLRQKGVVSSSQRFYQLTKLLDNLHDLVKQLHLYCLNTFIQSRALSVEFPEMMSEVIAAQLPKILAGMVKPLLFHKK
UniProt P08684, whole entry, looked up: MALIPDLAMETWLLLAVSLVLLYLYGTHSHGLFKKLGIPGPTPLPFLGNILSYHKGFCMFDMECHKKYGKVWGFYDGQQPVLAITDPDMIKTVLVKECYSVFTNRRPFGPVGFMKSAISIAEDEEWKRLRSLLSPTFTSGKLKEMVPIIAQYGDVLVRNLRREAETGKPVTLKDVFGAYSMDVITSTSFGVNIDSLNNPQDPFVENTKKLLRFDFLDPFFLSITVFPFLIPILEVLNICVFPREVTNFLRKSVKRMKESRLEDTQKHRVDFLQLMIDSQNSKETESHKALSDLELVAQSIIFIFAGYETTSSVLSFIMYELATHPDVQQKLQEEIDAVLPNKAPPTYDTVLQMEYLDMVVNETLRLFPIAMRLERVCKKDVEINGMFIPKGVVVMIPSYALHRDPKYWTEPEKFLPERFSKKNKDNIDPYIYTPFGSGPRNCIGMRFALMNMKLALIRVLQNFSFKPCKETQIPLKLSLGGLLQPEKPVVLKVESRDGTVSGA

How the values were obtained:
[1] = qHTS assay for small molecule disruptors of the mitochondrial membrane potential - cell viability (AID 720634); conditions: HepG2 viability, ATP luminescence (CellTiter-Glo), 1 h; note: nearly all actives have a fitted effect of over 20% in size
Procedure, shortened: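 HepG2, 1 hr compound, 37 C. ATP luminescence via CellTiter-Glo, 30 min RT, same well as m-MPI.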

[2] = biological target: Peroxisome proliferator-activated receptor gamma (Homo sapiens) (UniProt P37231); test: qHTS assay to identify small molecule agonists of the peroxisome proliferator-activated receptor gamma (PPARg) signaling pathway (AID 743094; active = well fitted activation curve with a large enough effect in the signal ratio in the repeat runs, not every such curve was filed as active; inconclusive = weak or mixed curves, or effect the other way; inactive = no such curve, though single readings can be large or run the other way; the % refers to the signal ratio); conditions: HEK293H PPARg-UAS-bla, beta-lactamase FRET ratio, 17 h; activation: at 57 µM (top of the series)
Procedure, shortened: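 Compounds dissolved in DMSO were added to PPARg UAS-bla HEK293H cells for 17 h at 37C, and reporter expression was quantified by fluorescence intensity after 1 h with LiveBLAzer B/G FRET substrate.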

[3] = biological target: Peroxisome proliferator-activated receptor gamma (Homo sapiens) (UniProt P37231); test: qHTS assay to identify small molecule antagonists of the peroxisome proliferator-activated receptor gamma (PPARg) signaling pathway (AID 743191); conditions: HEK293H PPARg-UAS-bla, beta-lactamase ratio, antagonist, 17 h; series mostly up to 62.6 µM; note: nearly all actives have a fitted effect of over 30% in size
[4] = biological target: Peroxisome proliferator-activated receptor delta (Homo sapiens) (UniProt Q03181); test: qHTS assay to identify small molecule agonists of the peroxisome proliferator-activated receptor delta (PPARd) signaling pathway (AID 743212); conditions: HEK293H PPARd-UAS-bla, beta-lactamase FRET ratio, 17 h; activation: at 62.6 µM (top of the series)
Procedure, shortened: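 GeneBLAzer PPARd UAS-bla HEK293H cells (beta-lactamase reporter under UAS control), plated and rested 5 h at 37 C, then exposed to compounds in DMSO at 37 C; LiveBLAzer B/G FRET substrate added, 2 h room temperature, fluorescence read.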

[5] = biological target: Bile acid receptor (Homo sapiens) (UniProt Q96RI1); test: qHTS assay to identify small molecule antagonists of the farnesoid-X-receptor (FXR) signaling pathway (AID 743217; active = well fitted inhibition curve with a large enough effect in the signal ratio in the repeat runs, not every such curve was filed as active; inconclusive = weak or mixed curves, or effect the other way; inactive = no such curve, though single readings can be large or run the other way; the % refers to the signal ratio); conditions: HEK293T FXR-UAS-bla, beta-lactamase ratio, CDCA-stimulated, 16 h; activity change, negative = inhibition: at 81.1 µM (top of the series)
Procedure, shortened: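 GeneBLAzer FXR-UAS-bla HEK 293T, CDCA-stimulated (50 uM final). Compound treatment 16 h, 37 °C. Detection: beta-lactamase cleavage of B/G FRET substrate, fluorescence.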

[6] = qHTS assay to identify small molecule antagonists of the vitamin D receptor (VDR) signaling pathway - cell viability counter screen (AID 743225; active = well fitted curve in the direction sought with a large enough effect in the repeat runs; inconclusive = weak or mixed curves; inactive = no such curve, though single readings can be large; an effect the other way counts as inactive or inconclusive; note: nearly all actives have a fitted effect of over 50% in size); conditions: VDR-bla HEK293T viability, CellTiter-Glo luminescence, 16 h
Procedure, shortened: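 Cytotoxicity counter screen read by CellTiter-Glo luminescence (30 min, room temperature) in the same wells as the VDR-bla antagonist readout. HEK 293T VDR-UAS-bla cells had 16 h at 37C with compound and 3 nM (final) 1-alpha,25-dihydroxyvitamin D3, then 2 h with FRET substrate.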

[7] = qHTS assay to identify small molecule agonists of the AP-1 signaling pathway (AID 1159526); conditions: ME-180 (cervical carcinoma) AP-1-bla reporter, beta-lactamase FRET ratio, 5 h; activation: at 76.8 µM (top of the series)
[8] = qHTS assay to identify small molecule antagonists of the sonic hedgehog signaling (Shh) pathway (AID 1259369); conditions: NIH/3T3 Gli1-Luc reporter, Shh antagonist, luminescence 24 h; note: nearly all actives have a fitted effect of over 45% in size
Procedure, shortened: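 For antagonist detection, the reporter line received test compounds together with conditioned medium, incubated 24hr at 37 C, 5% CO2, then luminescence was recorded following 30min room-temperature luciferase reagent incubation.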

[9] = biological target: Progesterone receptor (Homo sapiens) (UniProt P06401); test: qHTS assay to identify small molecule agonists of the progesterone receptor (PR) signaling pathway (AID 1346784); conditions: PR-UAS-bla HEK293T, beta-lactamase FRET ratio, 16 h; activation: at 92.4 µM (top of the series); note: nearly all actives have a fitted effect of over 30% in size
Procedure, shortened: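 Agonist qHTS: compounds pinned onto 3,000 PR-UAS-bla HEK 293T cells per well in charcoal-stripped serum medium, 16hr at 37C, then beta-lactamase activity measured by LiveBLAzer FRET fluorescence after 2 hours at room temperature.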

[10] = biological target: Progesterone receptor (Homo sapiens) (UniProt P06401); test: qHTS assay to identify small molecule antagonists of the progesterone receptor (PR) signaling pathway (AID 1346795; active = well fitted inhibition curve with a large enough effect in the signal ratio in the repeat runs, not every such curve was filed as active; inconclusive = weak or mixed curves; the % refers to the signal ratio); conditions: PR-UAS-bla HEK293T, beta-lactamase FRET ratio, 16 h; activity change, negative = inhibition: at 92.4 µM (top of the series)
Procedure, shortened: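 Antagonist mode with agonist R5020 at 1 nM final and 16 hr incubation at 37C. Reporter was beta-lactamase driven by UAS in HEK293T (PR-UAS-bla), 2% charcoal-stripped serum; signal from LiveBLAzer FRET substrate, 2 hr at room temperature.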

[11] = qHTS assay to identify small molecule antagonists of the progesterone receptor (PR) signaling pathway - cell viability counter screen (AID 1346798; active = well fitted curve in the direction sought with a large enough effect in the repeat runs; inconclusive = weak or mixed curves; inactive = no such curve, though single readings can be large; an effect the other way counts as inactive or inconclusive; note: nearly all actives have a fitted effect of over 50% in size); conditions: PR-UAS-bla HEK293T viability, CellTiter-Glo luminescence, 16 h
Procedure, shortened: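 Cytotoxicity read as CellTiter-Glo luminescence (30 min, room temperature) in the same wells as the beta-lactamase readout. HEK293T PR-UAS-bla cells in charcoal-stripped 2% FBS received compound and R5020, then 16 h at 37C, 5% CO2.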

[12] = qHTS assay to identify small molecule agonists of the TGF-beta/Smad signaling pathway (AID 1346859; active = well fitted activation curve with a large enough effect in the signal ratio in the repeat runs, not every such curve was filed as active; inconclusive = weak or mixed curves; the % refers to the signal ratio); conditions: SBE-bla HEK293T, TGF-beta/Smad beta-lactamase reporter, 5 h
Procedure, shortened: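 Fluorescence (ex 405 nm; em 460 and 530 nm) was read 2 h after LiveBLAzer FRET substrate at RT. The preceding compound treatment of overnight-plated SBE-bla HEK293T cells lasted 5 h at 37 C.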

[13] = biological target: Cytochrome P450 3A4 (Homo sapiens) (UniProt P08684); test: Cytochrome P450 Family 3 Subfamily A Member 4 (CYP3A4) small molecule antagonists: luciferase reporter qHTS assay (AID 1671201; active = well fitted curve in the direction sought with a large enough effect in the repeat runs; inconclusive = weak or mixed curves; inactive = no such curve, though single readings can be large; an effect the other way counts as inactive or inconclusive; note: nearly all actives have a fitted effect of over 50% in size); conditions: P450-Glo CYP3A4 enzyme, luciferin luminescence, 1 h
Procedure, shortened: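 Recombinant human CYP3A4 converts a proluciferin substrate to luciferin over 1 h at room temperature after NADPH regeneration solution is added (compound preincubated 10 min); detection reagent stops reaction, luminescence read 20 min later as relative units.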

Measured: Potency
Potency is the fitted concentration of half-maximal effect.

CCCCCCCCCCCCCC[P+](CCCCCC)(CCCCCC)CCCCCC
inconclusive: [1] 43.1 µM | [2] 61.5 µM | [3] 61.5 µM | [4] 48.8 µM | [5] 61.5 µM | [6] 0.974 µM | [7] 9.74 µM | [8] 0.966 µM | [9] 38.5 µM | [10] 48.4 µM | [11] 48.4 µM | [12] 2.18 µM | [13] 2.82 µM
